Earlier results as cited in patent US11020395B2, “Cycloalkyl substituted triazole compounds as agonists of the APJ receptor” (AMGEN INC., priority 2016, dated 2021).

Details: in vivo; cited from earlier work

Substance: Apelin-13
- plasma half-life: < 5 min
